{
  "source": "patent US5455161A",
  "about": "“Method for the monitoring of multiple anticancer drug resistance” (priority 1992, dated 1995)",
  "test_system": "T19 cells",
  "assay": "ODC (ornithine decarboxylase activity) assay of drug resistance, multidrug resistant T19 cells",
  "format": "cell-based, Chinese hamster",
  "conditions": "exposure 6, 18 and 48 hours",
  "protocol": "The protein determinations were carried out according to the method of Bradford (Anal.Biochem. 72, 248-54, 1976), using lysozyme, triple crystallization and dialysis, as a standard.\nMonolayers of parental AA8 and multidrug resistant T19 cells grown for 4 days at 37° C., were exposed to various concentrations of the antimitotic agent colchinine, for 6 hours, 18 hours and 48 hours and then the activity of ornithine decarboxylase was determined.\nIn the same manner, this assay was tested with various anticancer drugs of various structure and distinct mechanisms of action. The following cytotoxic agents were tested: vinca alkaloids, anthracyclines, epipodophyllotoxins, actinomycin D and antifolates.",
  "data": [
    {"smiles": "COc1cc2c(c(OC)c1OC)-c1ccc(OC)c(=O)cc1[C@@H](NC(C)=O)CC2", "note": "[Colchicine]", "values": [
      {"measurement": "ornithine decarboxylase activity with increased drug concentrations", "result": "dose-dependent decrease"}
    ]}
  ]
}
